These are literature values, as cited in patent publication US20220153803A1, “MODIFIED GLUCAGON MOLECUES AND FORMULATIONS WITH OXIDATION RESISTANCE AND METHODS AND KITS OF EMPLOYING THE SAME” (Purdue Research Foundation, priority 2019, published 2022).

For series [1] the following is noted: aqueous.

Where two headings read alike, the source gives them in different places.

With `CSCC[C@H](NC(=O)[C@H](CC(C)C)NC(=O)[C@H](Cc1c[nH]c2ccccc12)NC(=O)[C@H](CCC(N)=O)NC(=O)[C@@H](NC(=O)[C@H](Cc1ccccc1)NC(=O)[C@H](CC(=O)O)NC(=O)[C@H](CCC(N)=O)NC(=O)[C@H](C)NC(=O)[C@H](CCCN=C(N)N)NC(=O)[C@H](CCCN=C(N)N)NC(=O)[C@H](CO)NC(=O)[C@H](CC(=O)O)NC(=O)[C@H](CC(C)C)NC(=O)[C@H](Cc1ccc(O)cc1)NC(=O)[C@H](CCCCN)NC(=O)[C@H](CO)NC(=O)[C@H](Cc1ccc(O)cc1)NC(=O)[C@H](CC(=O)O)NC(=O)[C@H](CO)NC(=O)[C@@H](NC(=O)[C@H](Cc1ccccc1)NC(=O)[C@@H](NC(=O)CNC(=O)[C@H](CCC(N)=O)NC(=O)[C@H](CO)NC(=O)[C@@H](N)Cc1c[nH]cn1)[C@@H](C)O)[C@@H](C)O)C(C)C)C(=O)N[C@@H](CC(N)=O)C(=O)N[C@H](C(=O)O)[C@@H](C)O` [native Glucagon, native glucagon], the half life reads like this: (intramuscular dose) 20 to 26 min; (nasal powder dose) 30 to 45 min; (subcutaneous auto-injector or pre-filled dose) 28 to 35 min. Also, the “pH range of solubility” value in series [1] is “soluble at a pH of 3 or below and at a pH of 10 and above”.
